Data on 1 compound can be found in publication PMC11374953, “Heteroaryl derivatives of suvorexant as OX1R selective PET ligand candidates: Cu-mediated ^18F-fluorination of boroxines, in vitro and initial in vivo evaluation” (EJNMMI Research, 2024).

The chains behind the UniProt entries cited, without tags or fusion partners.
UniProt P08183, whole entry: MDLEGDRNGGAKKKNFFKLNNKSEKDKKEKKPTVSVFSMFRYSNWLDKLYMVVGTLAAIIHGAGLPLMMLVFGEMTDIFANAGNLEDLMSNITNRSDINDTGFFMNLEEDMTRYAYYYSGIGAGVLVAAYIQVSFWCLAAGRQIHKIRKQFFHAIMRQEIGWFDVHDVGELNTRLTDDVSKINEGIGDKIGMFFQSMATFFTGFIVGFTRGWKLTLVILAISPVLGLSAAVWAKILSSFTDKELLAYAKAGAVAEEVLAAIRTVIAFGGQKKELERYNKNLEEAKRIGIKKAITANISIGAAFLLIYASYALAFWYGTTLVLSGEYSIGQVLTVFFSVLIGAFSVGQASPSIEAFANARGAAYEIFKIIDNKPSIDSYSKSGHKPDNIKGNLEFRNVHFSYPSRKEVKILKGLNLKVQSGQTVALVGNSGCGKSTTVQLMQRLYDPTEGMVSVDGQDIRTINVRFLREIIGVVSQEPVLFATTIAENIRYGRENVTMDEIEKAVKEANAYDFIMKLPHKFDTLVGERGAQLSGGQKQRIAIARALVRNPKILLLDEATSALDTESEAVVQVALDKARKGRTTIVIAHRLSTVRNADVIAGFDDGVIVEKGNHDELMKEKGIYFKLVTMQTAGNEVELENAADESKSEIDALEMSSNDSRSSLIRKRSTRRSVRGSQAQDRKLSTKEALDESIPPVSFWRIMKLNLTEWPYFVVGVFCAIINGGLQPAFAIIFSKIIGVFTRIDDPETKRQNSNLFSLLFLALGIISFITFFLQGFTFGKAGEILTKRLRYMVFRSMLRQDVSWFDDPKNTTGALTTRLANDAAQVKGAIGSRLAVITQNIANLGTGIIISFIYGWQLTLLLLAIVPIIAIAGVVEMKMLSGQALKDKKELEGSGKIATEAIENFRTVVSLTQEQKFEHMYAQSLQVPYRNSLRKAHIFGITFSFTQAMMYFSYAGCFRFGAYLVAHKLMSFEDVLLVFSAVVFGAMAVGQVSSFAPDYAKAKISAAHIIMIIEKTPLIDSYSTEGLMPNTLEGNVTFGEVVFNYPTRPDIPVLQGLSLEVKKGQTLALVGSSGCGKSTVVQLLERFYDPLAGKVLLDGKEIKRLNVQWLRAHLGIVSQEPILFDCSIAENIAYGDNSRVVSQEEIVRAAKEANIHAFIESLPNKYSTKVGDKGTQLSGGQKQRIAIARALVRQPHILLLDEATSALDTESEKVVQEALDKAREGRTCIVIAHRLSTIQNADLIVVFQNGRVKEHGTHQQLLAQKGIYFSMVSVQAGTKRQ

The structures appear in SMILES notation.

This data set deals with P-gp (Homo sapiens, UniProt P08183). The data set can be described thus: Basolateral-to-apical transport in Caco-2 monolayers with and without the P-gp inhibitor zosuquidar. Particulars: 5 µM compound, 1 µM ZSQ, 4 h, n = 8.

Consider `C[C@H]1O[C@@H](O[C@H]2[C@@H](O)C[C@H](O[C@H]3[C@@H](O)C[C@H](O[C@H]4CC[C@@]5(C)[C@H](CC[C@@H]6[C@@H]5C[C@@H](O)[C@]5(C)[C@@H](C7=CC(=O)OC7)CC[C@]65O)C4)O[C@@H]3C)O[C@@H]2C)C[C@H](O)[C@@H]1O` [digoxin, reference compound], for which the “effect of P-gp inhibitor zosuquidar (ZSQ) on basolateral-to-apical transport” value was “significantly inhibited”.
